Results as given in patent US20090312349A1, “ANTI-INFLAMMATORY MEDICAMENTS” (priority 2004, published 2009).

Protein sequences, listed by entry. Tags and fused reporters are not part of them.
UniProt Q16539, whole entry: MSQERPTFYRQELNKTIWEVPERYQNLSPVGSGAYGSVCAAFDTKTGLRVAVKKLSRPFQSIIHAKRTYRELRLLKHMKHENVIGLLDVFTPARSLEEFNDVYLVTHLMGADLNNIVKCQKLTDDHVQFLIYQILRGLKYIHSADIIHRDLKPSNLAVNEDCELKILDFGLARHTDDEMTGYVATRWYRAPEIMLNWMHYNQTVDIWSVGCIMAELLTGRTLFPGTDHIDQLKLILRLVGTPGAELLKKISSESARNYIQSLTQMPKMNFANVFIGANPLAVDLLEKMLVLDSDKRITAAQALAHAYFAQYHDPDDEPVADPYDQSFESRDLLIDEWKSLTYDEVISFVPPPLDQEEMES

Biological target: T1, phospho p-38 alpha kinase (Homo sapiens, UniProt Q16539)
T1 construct: purchased Panvera
Assay: P-38 alpha kinase assay (spectrophotometric, pyruvate kinase/lactate dehydrogenase coupled)
Format: biochemical
Settings: Table 3; rates at […] to 2 h
Experimental: In this assay, the oxidation of NADH was continuously measured spectrophometrically. […] The reaction was initiated by adding ATP. The absorption at 340 nm was monitored continuously for up to 4 hours at 30° C. on Polarstar Optima plate reader (BMG). The kinase activity (reaction rate) was calculated from the slope at the time frame from 1.5 h to 2 h.
For inhibition determinations, test compounds were incubated with the reaction mixture for ˜5 min before adding ATP to start the reaction. […] IC50 values were calculated from a series of % inhibition values determined at a range of concentrations of each inhibitor using Prism to process the data and fit inhibition curves. Generally, the rates obtained at the time frame of 1.5 h to 2 h were used for these calculations.

Structure (SMILES)	IC50 [nM]
CC(C)(C)c1cc(NC(=O)Nc2ccc3c(c2)OCO3)n(-c2cccc(CO)c2)n1 [Example 294, 1-(benzo[d][1,3]dioxol-5-yl)-3-(3-t-butyl-1-(3-(hydroxymethyl)phenyl)-1H-pyrazol-5-yl)urea]	2100
CCOC(=O)Cc1ccc(-n2nc(C(C)(C)C)cc2NC(=O)Nc2cccc(F)c2F)cc1 [Example 202, ethyl 2-(4-(3-t-butyl-5-(3-(2,3-difluorophenyl)ureido)-1H-pyrazol-1-yl)phenyl)acetate]	1900
CC(C)(C)c1cc(NC(=O)Nc2ccc3c(c2)OCO3)n(-c2cccc(CN)c2)n1 [Example 288, 1-{1-[3-(aminomethyl)phenyl]-3-t-butyl-1H-pyrazol-5-yl}-3-(benzo-[d][1,3]dioxol-5-yl)urea]	104
CCOC(=O)Cc1cccc(-n2nc(C(C)(C)C)cc2NC(=O)Nc2ccc3c(c2)OCO3)c1 [Example 296, ethyl 2-(3-{5-[3-(benzo[d][1,3]dioxol-5-yl)ureido]-3-t-butyl-1H-pyrazol-1-yl}phenyl)-acetate]	284
CN(C)CCc1cccc(-n2nc(C(C)(C)C)cc2NC(=O)Nc2ccc3c(c2)OCO3)c1 [Example 300, 1-(benzo[d][1,3]dioxol-5-yl)-3-{3-t-butyl 1-(3-[2-(dimethylamino)ethyl]phenyl}-1H-pyrazol-5-yl)urea]	251
CN(C)C(=O)Cc1cccc(-n2nc(C(C)(C)C)cc2NC(=O)Nc2ccc3c(c2)OCO3)c1 [Example 299, 1-(benzo[d][1,3]dioxol-5-yl)-3-{3-t-butyl-1-[3-(2-(dimethylamino)-2-oxoethyl]phenyl}-1H-pyrazol-5-yl)urea]	2300
COc1cccc(NC(=O)Nc2cc(C(C)(C)C)nn2-c2cccc(CN)c2)c1 [Example 285, 1-{1-[3-(aminomethyl)phenyl]-3-t-butyl-1H-pyrazol-5-yl}-3-(3-methoxy-phenyl)urea]	102
CC(C)(C)c1cc(NC(=O)Nc2ccc3c(c2)OCO3)n(-c2cccc(CCN)c2)n1 [Example 301, 1-{1-[3-(2-aminoethyl)phenyl]-3-t-butyl-1H-pyrazol-5-yl}-3-(benzo[d][1,3]dioxol-5-yl)urea]	630
CC(C)(C)c1cc(NC(=O)Nc2cccc(C(F)(F)F)c2)n(-c2cccc(CN)c2)n1 [Example 284, 1-{1-[3-(aminomethyl)phenyl]-3-t-butyl-1H-pyrazol-5-yl}-3-(3-(trifluoro-methyl)phenyl)urea]	1950
CC(C)(C)c1cc(NC(=O)Nc2ccc(Cl)cc2)n(-c2cccc(CN)c2)n1 [Example 287, 1-{1-[3-(aminomethyl)phenyl]-3-t-butyl-1H-pyrazol-5-yl}-3-(4-chloro-phenyl)urea]	41
CC(C)(C)c1cc(NC(=O)Nc2ccc3c(c2)OCO3)n(-c2cccc(C(=O)O)c2)n1 [Example 295, 3-{5-[3-(benzo[d][1,3]dioxol-5-yl)ureido]-3-t-butyl-1H-pyrazol-1-yl}benzoic acid]	1200
CC(C)(C)c1cc(NC(=O)Nc2cccc3ccccc23)n(-c2cccc(CCN3CCOCC3)c2)n1 [Example 196]	28
